Earlier results on one compound are cited in patent US7645767B2, “Pharmaceutical compositions for treating chronic pain and pain associated with neuropathy” (Trinity Laboratories, Inc., priority 2006, dated 2010).

Chains of the proteins cited; added tags and fusions are not shown.
UniProt P35372, whole entry: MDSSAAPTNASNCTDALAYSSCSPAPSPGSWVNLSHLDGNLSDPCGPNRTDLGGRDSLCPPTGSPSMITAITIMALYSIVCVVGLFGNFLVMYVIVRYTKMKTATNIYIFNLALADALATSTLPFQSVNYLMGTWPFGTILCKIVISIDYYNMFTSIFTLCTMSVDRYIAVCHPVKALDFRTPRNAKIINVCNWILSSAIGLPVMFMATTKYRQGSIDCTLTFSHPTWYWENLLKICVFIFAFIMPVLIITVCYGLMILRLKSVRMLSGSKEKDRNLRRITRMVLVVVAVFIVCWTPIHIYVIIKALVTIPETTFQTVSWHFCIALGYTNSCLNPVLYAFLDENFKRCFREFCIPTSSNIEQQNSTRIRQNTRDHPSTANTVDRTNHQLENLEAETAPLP

The data set has as its target μ-opiate receptors (Homo sapiens, UniProt P35372). Particulars: relative to tramadol.

With `CN(C)C[C@H]1CCCC[C@]1(O)c1cccc(O)c1` [O-desmethyltramadol], the “affinity for the μ-opiate receptor compared with parent drug” value was “higher affinity”.
